{"source": "ChEMBL document CHEMBL4043226", "about": "“Design, synthesis and biological evaluation of benzamide and phenyltetrazole derivatives with amide and urea linkers as BCRP inhibitors” (Bioorg Med Chem Lett, 2017)", "key": {"[1]": {"assay": "Inhibition of ABCG2 in human H460/MX20 cells assessed as potentiation of mitoxantrone induced antiproliferative activity by measuring mitoxantrone IC50 at 10 uM preincubated for 2 hrs followed by mitoxantrone addition measured after 72 hrs by MTT assay (reference value: 6.161 +/- 0.172 microM)"}, "[2]": {"assay": "Inhibition of ABCG2 in human H460/MX20 cells assessed as potentiation of mitoxantrone induced antiproliferative activity by measuring mitoxantrone IC50 at 1 uM preincubated for 2 hrs followed by mitoxantrone addition measured after 72 hrs by MTT assay (reference value: 6.161 +/- 0.172 microM)"}}}
{"smiles": "COc1cccc(-n2nnc(-c3ccccc3NC(=O)Nc3cccc([N+](=O)[O-])c3)n2)c1", "values": [{"measurement": "IC50", "setting": "[1]", "value": 0.75, "unit": "µM"}, {"measurement": "IC50", "setting": "[2]", "value": 0.967, "unit": "µM"}]}
